For one compound, IC50 results are on record in ChEMBL document CHEMBL5214932, “A closer look at N2,6-substituted 1,3,5-triazine-2,4-diamines: Advances in synthesis and biological activities” (Eur J Med Chem, 2022).

The subject of one assay is HL-60. Briefly: Cytotoxicity against human HL-60 cells assessed as cell growth inhibition. The assay is classed as functional, cell-based.
A further assay has as its system SK-OV-3. Nature of the assay: Cytotoxicity against human SK-OV-3 cells assessed as cell growth inhibition. The assay is classed as functional, cell-based.

As for `Cc1ccc(Cl)cc1-c1nc(N)nc(Nc2ccc(Br)cc2)n1`, the IC50 in the assay on HL-60 and in the assay on SK-OV-3 was 60 nM in each case.
